In this assay the target is 5-HT1AR (serotonin 1A receptor) (Homo sapiens, UniProt P08908). Put plainly: G protein nanoBRET. In kind it is cell-based. In general terms: Bioluminescence resonance energy transfer reports proximity on the nanometre scale.

Protein sequences, listed by entry. Tags and fused reporters are not part of them.
UniProt P08908, whole entry: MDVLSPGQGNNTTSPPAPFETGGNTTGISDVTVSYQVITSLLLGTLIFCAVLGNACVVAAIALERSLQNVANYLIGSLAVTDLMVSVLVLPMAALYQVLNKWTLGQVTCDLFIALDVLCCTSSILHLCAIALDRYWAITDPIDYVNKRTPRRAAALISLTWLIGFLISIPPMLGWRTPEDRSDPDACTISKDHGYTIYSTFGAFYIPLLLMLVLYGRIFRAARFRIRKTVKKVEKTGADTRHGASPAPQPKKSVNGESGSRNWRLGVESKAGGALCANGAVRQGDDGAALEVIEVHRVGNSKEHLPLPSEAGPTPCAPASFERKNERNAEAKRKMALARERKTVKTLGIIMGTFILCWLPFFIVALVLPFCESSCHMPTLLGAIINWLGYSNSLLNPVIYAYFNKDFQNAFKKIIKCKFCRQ

Usually EC50 stands for the concentration that produces a half-maximal response. `CNS(=O)(=O)Cc1ccc2[nH]cc(CCN(C)C)c2c1` [Sumatriptan] had an EC50 of 6.76 µM.
